In ChEMBL document CHEMBL1122142, “Synthesis and antiinflammatory activity of hexahydrothiopyrano[4,3-c]pyrazoles and related analogues” (J Med Chem, 1982) one finds TR data, which are given here for one molecule.

The nature of the series: Therapeutic ratio was determined for intraperitoneal administration. The format is ADME. Conditions: ip.

Molecules are shown by their SMILES.

As for `COc1ccc2cc([C@H](C)C(=O)O)ccc2c1` [NAPROXEN], the TR worked out at 3.
